The experiment relates to inflammatory disease, immunological disease and/or autoimmunological disease. Put plainly: Treatment of patients: condition as stated by patient and physician (pain, fatigue, daily life, duration of effect, relapses). The note with it: Patient 7, rheumatoid arthritis/synovitis; before or beside the treatment of IE 7. The format is in vivo, human. The protocol:
All patients treated in the following Inventive Examples, Reference Examples and Comparative Examples were selected solely based on their diagnosis without performing a preselection in view of other parameters.
Annotation to the Tables 8A and B and 9 to 10: Patients were usually examined and treated in the same session. The success of the treatment or the effect thereof was then determined in the following session, usually one week later, and the next treatment performed as indicated in the tables.

On to “abatacept: selective immunosuppressive inhibiting T-cell activation”, for which the “effectiveness of earlier or basic treatment (patient history)” value was “insufficient effectiveness”.

For the origin of these results see patent US20240228570A9, “PLATFORM TECHNOLOGY FOR TREATMENT OF INFLAMMATORY, IMMUNOLOGICAL AND/OR AUTOIMMUNOLOGICAL DISEASES” (ellennbe GmbH, priority 2021, published 2024).
